Measured values as given in patent US8282952B2, “Insect attractant” (Activetrad (Proprietary) Limited, priority 2007, dated 2012).

System: Female medflies
Assay: Delta trap catches in temperature controlled room, released female medflies
Details: as amine in the NATC/amine/NH4Ac/Molasses mixture at 0.5% of each component

OCCN(CCO)CCO
female medfly attraction compared with GF120-5%: comparable to 20% better
